Earlier results on one substance are cited in patent publication US20230414711A1, “THERAPEUTICS TARGETING TRANSFORMING GROWTH FACTOR BETA FAMILY SIGNALING” (The Jackson Laboratory, priority 2020, published 2023).

Amino acid sequences for entries named in this document (tags omitted). Residues count along the entry.
UniProt Q13705, 19-512: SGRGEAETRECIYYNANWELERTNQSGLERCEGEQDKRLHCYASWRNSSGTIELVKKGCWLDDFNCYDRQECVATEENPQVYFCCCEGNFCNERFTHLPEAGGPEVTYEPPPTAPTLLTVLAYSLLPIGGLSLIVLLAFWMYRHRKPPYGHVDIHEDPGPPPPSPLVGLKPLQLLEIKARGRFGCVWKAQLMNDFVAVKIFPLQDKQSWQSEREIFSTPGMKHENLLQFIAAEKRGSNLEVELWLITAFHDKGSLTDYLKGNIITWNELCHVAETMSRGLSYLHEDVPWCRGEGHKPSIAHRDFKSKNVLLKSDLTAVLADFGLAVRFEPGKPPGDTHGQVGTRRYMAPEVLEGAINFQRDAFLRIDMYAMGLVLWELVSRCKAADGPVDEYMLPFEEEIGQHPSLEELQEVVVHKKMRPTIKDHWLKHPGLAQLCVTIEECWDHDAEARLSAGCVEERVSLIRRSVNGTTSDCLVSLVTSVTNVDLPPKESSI

This series addresses ACVR2B (Homo sapiens, UniProt Q13705). Conditions: initial publication.

As for “bimagrumab: monoclonal antibody targeting ACVR2B, developed by Novartis”, the “higher affinity for ACVR2B compared to ACVR2” value was “over 200 fold”.
